Measured values from patent US11484608B2, “Non-invasive assessment of hepatic mitochondrial metabolism by positional isotopomer NMR tracer analysis (PINTA)” (YALE UNIVERSITY, priority 2017, dated 2022).

Test system: hepatic glucose production, VPC and VCS (InsP3R-I signaling)
Assay: Acute 2 hr glucagon infusion in WT and liver-specific InsP3R-I KO mice
Details: acute infusion 5 ng kg^−1 min^−1, 2 hr, overnight-fasted mice
Excerpt: All protocols were approved by the Yale University Animal Care and Use Committee. Liver-specific InsP3R-I KO mice were generated as described (Feriod, et al. Hepatology Communications 1, 23-35, 2017) and in all experiments, littermates were studied at 10-12 weeks of age. They were fed standard chow (Teklad #2018) and housed on a 12 hr light/dark cycle in the Yale Animal Resources Center. To knock down ATGL in a liver-specific manner, an adeno-associated virus targeting ATGL (Vector BioLabs, 10^12 gc per mouse) was administered by retro-orbital injection four weeks prior to studies. […]
Total glucose turnover (i.e. hepatic glucose production) was measured by determining the specific activity of [^3H] glucose in plasma using a scintillation counter, and the VPC/VHGP ratio was calculated using the equation
[formula] and calculated absolute VCS by dividing VPC by VPC/VCS. […] Liver [^13C] bicarbonate enrichment was measured by GC-MS (HP-1 column: 12 m×0.2 mm×0.33 μm film, isothermal: 110° C.). […] After ten minutes, CO2 was sampled from the head-space and ions with m/z 44 and 45 daltons were monitored using electron impact ionization.
Plasma glucose concentrations were measured using a YSI Glucose Analyzer. […] Plasma NEFA concentrations were measured using the Wako NEFA assay, while plasma glycerol and plasma and liver amino acid concentrations were measured by GC/MS. […]

glucagon
rise in plasma glucagon concentrations: approximately five-fold
